# According to US10167259B2, “Allosteric inhibitors of proteasome and methods of use thereof” (THE BOARD OF REGENTS OF THE UNIVERSITY OF TEXAS SYSTEM, priority 2013, dated 2019):
# Protein sequences, listed by entry. Tags and fused reporters are not part of them. Lines headed by an entry give the natural chain unless they say otherwise; changes in a name come on top.
# UniProt O14818: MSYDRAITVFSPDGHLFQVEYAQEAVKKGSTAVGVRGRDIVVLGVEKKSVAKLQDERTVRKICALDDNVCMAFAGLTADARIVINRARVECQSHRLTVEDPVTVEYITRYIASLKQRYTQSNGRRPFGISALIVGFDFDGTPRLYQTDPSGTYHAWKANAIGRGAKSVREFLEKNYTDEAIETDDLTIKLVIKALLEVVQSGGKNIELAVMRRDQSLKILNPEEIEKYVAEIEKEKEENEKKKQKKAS
# UniProt P25786: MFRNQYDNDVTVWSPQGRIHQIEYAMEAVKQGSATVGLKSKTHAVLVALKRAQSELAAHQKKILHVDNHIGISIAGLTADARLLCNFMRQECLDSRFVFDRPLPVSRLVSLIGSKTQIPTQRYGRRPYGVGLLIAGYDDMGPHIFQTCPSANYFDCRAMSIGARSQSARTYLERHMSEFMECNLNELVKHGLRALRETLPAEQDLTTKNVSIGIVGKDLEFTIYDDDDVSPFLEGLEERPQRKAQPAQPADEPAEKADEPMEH
# UniProt P25787: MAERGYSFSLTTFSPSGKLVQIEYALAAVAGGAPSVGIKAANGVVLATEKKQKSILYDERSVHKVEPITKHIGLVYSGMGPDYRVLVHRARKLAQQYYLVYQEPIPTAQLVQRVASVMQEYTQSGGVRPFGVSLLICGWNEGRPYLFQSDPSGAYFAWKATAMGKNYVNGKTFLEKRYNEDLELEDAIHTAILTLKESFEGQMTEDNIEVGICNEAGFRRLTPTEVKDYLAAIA
# UniProt P25788: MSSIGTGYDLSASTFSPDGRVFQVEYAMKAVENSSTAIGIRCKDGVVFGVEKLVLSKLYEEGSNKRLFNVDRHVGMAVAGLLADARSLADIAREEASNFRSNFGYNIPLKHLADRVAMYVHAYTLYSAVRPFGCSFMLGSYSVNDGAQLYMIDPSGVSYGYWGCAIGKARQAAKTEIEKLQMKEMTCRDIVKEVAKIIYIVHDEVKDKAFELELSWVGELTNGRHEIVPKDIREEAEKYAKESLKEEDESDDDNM
# UniProt P25789: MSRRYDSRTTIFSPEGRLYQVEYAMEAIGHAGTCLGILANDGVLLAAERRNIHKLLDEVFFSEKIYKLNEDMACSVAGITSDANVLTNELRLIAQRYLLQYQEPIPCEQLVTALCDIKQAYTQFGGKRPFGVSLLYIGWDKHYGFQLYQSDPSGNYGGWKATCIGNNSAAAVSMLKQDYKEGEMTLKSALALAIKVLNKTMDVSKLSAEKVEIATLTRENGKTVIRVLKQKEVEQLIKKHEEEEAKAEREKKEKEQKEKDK
# UniProt P28066: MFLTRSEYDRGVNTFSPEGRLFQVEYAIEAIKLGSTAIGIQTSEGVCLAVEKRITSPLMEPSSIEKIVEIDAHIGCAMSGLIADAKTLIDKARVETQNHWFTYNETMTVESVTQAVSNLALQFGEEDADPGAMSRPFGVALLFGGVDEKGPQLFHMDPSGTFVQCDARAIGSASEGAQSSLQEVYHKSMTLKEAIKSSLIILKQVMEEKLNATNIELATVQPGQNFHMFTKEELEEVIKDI
# UniProt P60900: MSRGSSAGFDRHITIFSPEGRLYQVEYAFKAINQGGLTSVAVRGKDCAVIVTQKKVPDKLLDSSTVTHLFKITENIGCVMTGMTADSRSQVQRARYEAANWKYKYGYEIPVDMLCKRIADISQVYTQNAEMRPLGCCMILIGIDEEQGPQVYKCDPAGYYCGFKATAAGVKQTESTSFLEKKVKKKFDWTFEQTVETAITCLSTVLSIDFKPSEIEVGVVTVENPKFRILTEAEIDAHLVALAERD
# How the values were obtained:
# Solubility in solvents = assay type: physicochemical
# [1] = target: core particle in cell lysates (UniProt O14818+P25786+P25787+P25788+P25789+P28066+P60900); assay: Fluorescent labelling of cell lysates, nondenaturing PAGE; details: Mcf7 and Mcf10A lysates; FIG. 3A
# [2] = target: chymotrypsin-like activity of the core particle (CP; 20S) (UniProt O14818+P25786+P25787+P25788+P25789+P28066+P60900); assay: Inhibition of chymotrypsin-like peptidase activity of the proteasome core particle
Substance,Soluble in (Solubility in solvents),Species labelled in cell lysates [1],Inhibitory properties toward the core proteasome after modification of B1 [2]
1-(2-cyclohexyl-2-oxoacetyl)piperidine-3-carboxylic acid,"DMSO, CDCl3",,
"2-(7-nitrobenzo[c][1,2,5]oxadiazol-4-ylamino)ethyl 1-(2-cyclohexyl-2-oxoacetyl)piperidine-2-carboxylate",,decorates only the core particle,does not erase the inhibitory properties
